This is an account of results in patent publication US20250221953A1 (The University of Chicago, priority 2022, published 2025).

For series [1], the system named is PD-1^+ Jurkat T cells co-cultured with H596 (PD-L1^+) cells. The series can be described thus: 1st screen 1b: rescue of PD-L1/PD-1 dependent exhaustion of PD-1+ Jurkat T cells in co-culture (IL-2 ELISA). The note with it: 1st screen 1b (Table 4): rescue of PD-L1/PD-1 dependent exhaustion of PD-1 expressing Jurkat T cells co-cultured with PD-L1-expressing H596 cells. The series is classed as cell-based, human. Background: ELISA stands for enzyme-linked immunosorbent assay.

The test system of series [2] is B16F10 cells co-cultured with Pmel-1 cells. The note with it: 20 μM TVA, 24 hours.

Regarding `O=P([O-])(O)O.[K+]` [Monopotassium Phosphate], the “Relative changed percentage (%)” value in series [1] is on record as 26.14%.

Regarding `O=C([O-])[O-].[Ca+2]` [Calcium Carbonate], the “Relative changed percentage (%)” value in series [1] is on record as −5.353%.

Turning to “MANGANESE SULFATE MONOHYDRATE [MANGANESE SULFATE MONOHYDRATE,]”, the “Relative changed percentage (%)” value in series [1] is −79.46%.

Turning to `Cl.NCCc1ccc(O)c(O)c1` [3-HYDRO[…]/dopamine, 3-HYDRO[…]], the “Relative changed percentage (%)” value in series [1] is given as −73.99%.

On to (−)-EPINEPHRINE, for which, in series [1], the “Relative changed percentage (%)” value was −51.6%.

Regarding `Oc1ccccc1` [PHENOL], in series [1], the “Relative changed percentage (%)” value is on record as −71.08%.

Consider `CC/C=C\C/C=C\C/C=C\CCCCCCCC(=O)O` [Alpha-linolenic acid (ALA)], for which the “Relative changed percentage (%)” value in series [1] is 52.43%.

As to `O=C(O)[C@@H]1CCCN1` [L-Proline], the “Relative changed percentage (%)” value in series [1] is 0.3268%.

On to `NCC(=O)O` [Glycine], for which the “Relative changed percentage (%)” value in series [1] is 43.99%.

On to `O=P([O-])([O-])O.[K+].[K+]` [Dipotassium Phosphate], for which the “Relative changed percentage (%)” value in series [1] was found to be 17.73%.

Take androsterone [AN[…],/androsterone]: the “Relative changed percentage (%)” value in series [1] was −32.05%.

With Tricalcium phosphate hydrate, in series [1], the “Relative changed percentage (%)” value is 17.36%.

Take `O=C(O)CCC(=O)O` [SUCCINIC ACID]: the “Relative changed percentage (%)” value in series [1] was −65.83%.

Consider `O=C([O-])O.[Na+]` [SODIUM BICARBONATE], for which, in series [1], the “Relative changed percentage (%)” value came to 9.45%.

Take `CCCCC/C=C\C/C=C\C/C=C\CCCCC(=O)O` [Gamma linolenic acid]: the “Relative changed percentage (%)” value in series [1] is −94.21%.

For the compound `C[N+](C)(C)CCO.[Cl-]` [Choline Chloride], in series [1], the “Relative changed percentage (%)” value is 15.7%.

For `CCCCCC/C=C/CCCCCCCCCC(=O)O` [TVA, trans-vaccenic acid], in series [2], the “cytotoxicity of B16F10 cells induced by co-cultured pmel-1-specific T cells” value is given as “enhances cytotoxicity”.

With `CSCC[C@H](N)C(=O)O` [L-Methionine], the “Relative changed percentage (%)” value in series [1] was determined as 62.89%.

For `C/C=C/C=C/C(=O)[O-].[K+]` [Potassium sorbate], the “Relative changed percentage (%)” value in series [1] is −28.7%.

As to `N[C@@H](CCC(=O)N[C@@H](CS)C(=O)NCC(=O)O)C(=O)O` [L-GLUTATHIONE REDUCED], in series [1], the “Relative changed percentage (%)” value was −36.35%.

As to `N[C@@H](CCC(=O)N[C@@H](CS)C(=O)NCC(=O)O)C(=O)O` [L-glutathione], in series [1], the “Relative changed percentage (%)” value was −4.051%.

For `O=S(=O)([O-])[O-].[Cu+2]` [Copper sulfate], in series [1], the “Relative changed percentage (%)” value is reported as −19.55%.

In the case of `NCCc1c[nH]cn1` [HISTAMINE FREE BASE CRYSTALLINE, HISTAMINE FREE BASE], the “Relative changed percentage (%)” value in series [1] was determined as 13.58%.

For the compound `O=S(=O)([O-])[O-].[Na+].[Na+]` [SODIUM SULFATE], in series [1], the “Relative changed percentage (%)” value was found to be 12.89%.

`O=S(=O)([O-])[O-].[Mn+2]` [Manganese sulfate]: in series [1], the “Relative changed percentage (%)” value is on record as −29.86%.

As to Silicic acid, the “Relative changed percentage (%)” value in series [1] is listed as −50.08%.

For ZINC SULFATE HEPTAHYDRATE, in series [1], the “Relative changed percentage (%)” value was 12.37%.
